TDP1 cell noCPT: qHTS for Inhibitors of human tyrosyl-DNA phosphodiesterase 1 (TDP1): qHTS in cells in absence of CPT; AID 686978, 2013; Potency, µM (series often up to 46.2 µM), without a hit: at the highest dose activity change, negative = growth inhibition, hits mostly inhibitors; DT40 Tdp1-/- hTDP1 cells, no CPT, ATP luminescence, 48 h; hit rate 15% among 420,000; also: potency is read from the fitted curve at half-maximal effect; % is scaled to controls: 0 for no effect and ±100 for the full control effect; nearly all actives have a fitted effect of over 55% in size
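DT40 Tdp1-/-;hTDP1 cells, no CPT (DMSO vehicle only), 400 cells/well; compounds pin-transferred; ≥48 hr, 37 °C; CellTiter-Glo 30 min RT dark, luminescence read.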
TDP1 cell CPT: growth inhibition of DT40 Tdp1-/-;hTDP1 cells with camptothecin (screen for TDP1 inhibitors). AID 686979. Potency, µM (highest dose often 46.2 µM), without a hit: at the top dose activity change, negative = growth inhibition, hits mostly inhibitors. hit rate 12% among 420,000. chicken DT40 Tdp1-/-;hTDP1 cells + 20 nM CPT, ATP luminescence, 48 h; also: potency is read from the fitted curve at half-maximal effect; % is scaled to controls: 0 for no effect and ±100 for the full control effect; nearly all actives have a fitted effect of over 55% in size
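Chicken DT40 Tdp1-/- cells stably complemented with human TDP1 were seeded at 400 cells/well in medium containing 20 nM camptothecin, exposed to pin-transferred compounds, and grown at 37 °C for at least 48 hr. Viability was read as ATP luminescence.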
uPA generation: cell surface uPA generation inhibition; cell surface uPA generation assay, qHTS; Potency, µM (top dose mostly 38.3 µM), without a hit: at the highest dose activity change, negative = inhibition, actives largely listed as inhibitors; hit rate 0.31% among 330,000; active = well fitted inhibition curve with a large enough effect; inconclusive = small, poorly fitted or top-dose-only effect; inactive = no such curve, though single readings can be large or run the other way; tested in mouse RAW 264.7 cells; also: potency is read from the fitted curve at half-maximal effect; % is scaled to controls: 0 for no effect and ±100 for the full control effect; nearly all actives have a fitted effect of over 55% in size
miR-21 reporter: miR-21 reporter, rising signal; HeLa miR-21 FLuc reporter, luciferase, 48 h; Potency, µM (highest dose often 38.3 µM), for the others: top-dose reporter change, positive = more light; 340,000 tested, under 10 active; AID 2288; active = well fitted rising curve with a large enough effect; inconclusive = small, poorly fitted or top-dose-only effect; inactive = no such curve, though single readings can be large or run the other way;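 further: % of control where 0% means no effect; miR-21 action dims this reporter so a rising signal means less miR-21 action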
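Compounds were titrated across several concentrations (up to approximately 40 uM) and incubated 48 hours with HeLa miR-21-FLuc reporter cells (miR-21 target sequence downstream of FLuc, endogenous miR-21). Readout was firefly luciferase luminescence after lytic detection reagent.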
TDP1 block: blocks human tyrosyl-DNA phosphodiesterase 1. Q9NUW8. recombinant TDP1, AlphaScreen DNA substrate cleavage. Potency, µM (doses to about 130 µM), for inactives: at the highest dose activity change, negative = inhibition, most hits filed as inhibitors. hit rate 0.28% among 350,000; also: potency is read from the fitted curve at half-maximal effect; % is scaled to controls: 0 for no effect and ±100 for the full control effect; nearly all actives have a fitted effect of over 40% in size
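Recombinant E. coli-expressed Tdp1 (1 nM) preincubated with compound 15 min at RT, then 5'-biotin/3'-phosphotyrosine-FITC DNA substrate (15 nM) added for 5 min. AlphaScreen beads (10 ug/ml) added, 10 min RT; tyrosine-FITC cleavage read as signal loss.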
The depositor's hits bear a star; [ ] = another dose, or the depositor's remark. Hits are enriched below; roughly 16% of the tested compounds scored in any of these assays. Unless noted, calls follow the shape of the dose curve; as a rule, active = well fitted curve in the direction sought with a large enough effect; inconclusive = small, poorly fitted or top-dose-only effect, or another doubt; inactive = no such curve, though single readings can be large; an effect the other way counts as inactive or inconclusive.

How did CC(C)(C)OC(=O)C[C@@H]1C/C=C\C[C@H](CC(=O)N(CCO)Cc2ccccc2)C(=O)NC[C@H](c2ccccc2)OC1=O do in these assays?
TDP1 cell noCPT: inconclusive; TDP1 cell CPT: inconclusive; uPA generation: -5.8%; TDP1 block: 0.2%

What do the screens show for `COc1ccccc1-n1c(C)c(C(=O)O)c2cc(OC)c3ccccc3c21`?
TDP1 cell noCPT: 9.2%; TDP1 cell CPT: 12.2%; uPA generation: -9.7%; miR-21 reporter: -0.5%

Results for Cc1cc(C)nc(N/C(=N\S(=O)(=O)Cc2ccccc2)Nc2ccccc2Br)n1 ?
TDP1 cell noCPT: 20.6µM*; TDP1 cell CPT: 20.6µM*; uPA generation: -4.5%; miR-21 reporter: 26.0%; TDP1 block: 5.3%

How did Cc1cc(C)nc(Nc2ccccc2Br)n1 do in these assays?
TDP1 cell noCPT: -29.0%; TDP1 cell CPT: -15.3%; uPA generation: 0.6%; miR-21 reporter: -7.9%; TDP1 block: 1.9%

How did COc1cc(/C=N/Nc2ccc(S(N)(=O)=O)cc2[N+](=O)[O-])cc(OC)c1O do in these assays?
TDP1 cell noCPT: -23.5%; TDP1 cell CPT: -19.6%; uPA generation: 8.3%; miR-21 reporter: -1.3%; TDP1 block: -4.1%

How did Fc1cccc(/C=N/NC(=S)Nc2ccccc2Cl)c1 do in these assays?
TDP1 cell noCPT: 2.59µM*; TDP1 cell CPT: 6.51µM*; uPA generation: 6.4%; miR-21 reporter: -69.8%; TDP1 block: 8.1%

What do the screens show for `Fc1ccc(NC(=S)N/N=C/c2cccc(Br)c2)c(F)c1`?
TDP1 cell noCPT: 4.11µM*; TDP1 cell CPT: 6.51µM*; uPA generation: 2.2%; miR-21 reporter: -27.0%; TDP1 block: 1.1%

How did S=C(N/N=C/c1ccc(Cl)c(Cl)c1)Nc1ccccc1Cl do in these assays?
TDP1 cell noCPT: inconclusive; TDP1 cell CPT: 23.1µM*; uPA generation: 6.6%; miR-21 reporter: -32.4%; TDP1 block: 8.2%

What do the screens show for `COc1cc(/C=N/Nc2ccccc2[N+](=O)[O-])cc(OC)c1O`?
TDP1 cell noCPT: 6.51µM*; TDP1 cell CPT: inconclusive; uPA generation: 1.5%; miR-21 reporter: -34.8%; TDP1 block: -2.5%

What do the screens show for `FC(F)(F)c1ccc(Cl)c(NC(=S)N/N=C/c2ccccc2Cl)c1`?
TDP1 cell noCPT: inconclusive; TDP1 cell CPT: inconclusive; uPA generation: inconclusive; miR-21 reporter: -2.4%; TDP1 block: 6.2%

Random excerpt: 3 records from the list, in no set order.
What do the screens show for `FC(F)(F)c1ccc(Cl)c(NC(=S)N/N=C/c2ccccc2Cl)c1`?
TDP1 cell noCPT: inconclusive; TDP1 cell CPT: inconclusive; uPA generation: inconclusive; miR-21 reporter: -2.4%; TDP1 block: 6.2%

How did Fc1cccc(/C=N/NC(=S)Nc2ccccc2Cl)c1 do in these assays?
TDP1 cell noCPT: 2.59µM*; TDP1 cell CPT: 6.51µM*; uPA generation: 6.4%; miR-21 reporter: -69.8%; TDP1 block: 8.1%

What do the screens show for `COc1ccccc1-n1c(C)c(C(=O)O)c2cc(OC)c3ccccc3c21`?
TDP1 cell noCPT: 9.2%; TDP1 cell CPT: 12.2%; uPA generation: -9.7%; miR-21 reporter: -0.5%

Next section
How did COc1ccc(/C=N/NC(=O)c2cccc([N+](=O)[O-])c2)cc1O do in these assays?
TDP1 cell noCPT: inconclusive; TDP1 cell CPT: -29.2%; uPA generation: 5.2%; miR-21 reporter: 3.2%; TDP1 block: -2.4%

Results for O=[N+]([O-])c1cc(/C=N/NC(=S)Nc2ccccc2Cl)ccc1Cl ?
TDP1 cell noCPT: 11.6µM*; TDP1 cell CPT: inconclusive; uPA generation: -5.2%; miR-21 reporter: -3.0%; TDP1 block: 2.7%

What do the screens show for `COc1ccc(/C=N/NC(=S)Nc2ccccc2[N+](=O)[O-])cc1O`?
TDP1 cell noCPT: 4.61µM*; TDP1 cell CPT: 6.51µM*; uPA generation: inconclusive; miR-21 reporter: -16.2%; TDP1 block: -2.8%

Results for COc1cc(/C=N/Nc2ccc(Cl)nn2)cc(OC)c1O ?
TDP1 cell noCPT: 11.4%; TDP1 cell CPT: 12.2%; uPA generation: inconclusive; miR-21 reporter: 0.1%

What do the screens show for `Cc1ccc(NC(=S)N/N=C/c2c(Cl)cccc2Cl)c(C)c1`?
TDP1 cell noCPT: 1.46µM*; TDP1 cell CPT: 1.3µM*; uPA generation: -10.3%; miR-21 reporter: -4.4%; TDP1 block: 5.4%

How did COc1cc(/C=N/Nc2ccc(F)cc2F)cc(OC)c1O do in these assays?
TDP1 cell noCPT: 5.8µM*; TDP1 cell CPT: 2.31µM*; uPA generation: 9.1%; miR-21 reporter: -12.3%; TDP1 block: 8.3%

How did O=C(Nc1nc(-c2ccccc2)c(C(=O)c2ccccc2)s1)c1ccc(S(=O)(=O)N2CCCCC2)cc1 do in these assays?
TDP1 cell noCPT: inconclusive; TDP1 cell CPT: -22.7%; uPA generation: 2.3%; miR-21 reporter: 0.2%; TDP1 block: 5.1%

How did CCOC(=O)c1sc2ccccc2c1S(=O)(=O)Nc1c(C)cccc1C do in these assays?
TDP1 cell noCPT: inconclusive; TDP1 cell CPT: inconclusive; miR-21 reporter: 26.1%; TDP1 block: 7.1%

Results for COc1ccc(NC(=O)C2CCCN(S(=O)(=O)c3ccc(Br)s3)C2)cc1 (stereo not given) ?
TDP1 cell noCPT: inconclusive; TDP1 cell CPT: inconclusive; miR-21 reporter: 0.7%; TDP1 block: 0.0%[12.3 µM]

Results for O=C(C1CCN(S(=O)(=O)c2ccc(Br)s2)CC1)N1CCCCC1 ?
TDP1 cell noCPT: 20.6µM*; TDP1 cell CPT: inconclusive; uPA generation: -3.5%; miR-21 reporter: 8.0%; TDP1 block: 7.8%

Results for COc1cccc(N2CCN(C(=O)C3CCCN(S(=O)(=O)c4ccc(Br)s4)C3)CC2)c1 (stereo not given) ?
TDP1 cell noCPT: inconclusive; TDP1 cell CPT: inconclusive; miR-21 reporter: inconclusive; TDP1 block: 7.5%

Results for O=C(C1CCCN(S(=O)(=O)c2ccc(Br)s2)C1)N1CCN(c2ccccc2)CC1 (stereo not given) ?
TDP1 cell noCPT: 13µM*; TDP1 cell CPT: 18.4µM*; uPA generation: -0.2%; miR-21 reporter: 20.4%; TDP1 block: 9.1%

Results for O=C(C1CCCN(S(=O)(=O)c2ccc(Br)s2)C1)N1CCCCCC1 (stereo not given) ?
TDP1 cell noCPT: 14.6µM*; TDP1 cell CPT: 20.6µM*; uPA generation: 2.4%; miR-21 reporter: 2.6%; TDP1 block: -4.1%

Results for Cc1cccc(N2CCN(C(=O)C3CCCN(S(=O)(=O)c4ccc(Br)s4)C3)CC2)c1C (stereo not given) ?
TDP1 cell noCPT: 8.2µM*; TDP1 cell CPT: 9.2µM*; miR-21 reporter: inconclusive; TDP1 block: 5.0%

What do the screens show for `O=C(C1CCN(S(=O)(=O)c2ccc(Br)s2)CC1)N1CCN(c2cccc(Cl)c2)CC1`?
TDP1 cell noCPT: inconclusive; TDP1 cell CPT: inconclusive; miR-21 reporter: 23.1%; TDP1 block: 7.5%

How did O=C(O)C1CCCN(S(=O)(=O)c2ccc(Br)s2)C1 (stereo not given) do in these assays?
TDP1 cell noCPT: -7.1%; TDP1 cell CPT: 2.4%; uPA generation: -0.6%; miR-21 reporter: -0.1%; TDP1 block: 1.2%

Results for O=C(CCn1c(=O)oc2ccccc21)N(Cc1ccccc1)c1ccccn1 ?
TDP1 cell noCPT: -9.2%; TDP1 cell CPT: -24.1%; uPA generation: 3.6%

How did Cc1cnc(C(=O)OC(C(=O)Nc2cc(C(F)(F)F)ccc2Cl)c2ccccc2)cn1 (stereo not given) do in these assays?
TDP1 cell noCPT: inconclusive; TDP1 cell CPT: 2.4%; uPA generation: 0.8%; miR-21 reporter: -4.2%; TDP1 block: -12.9%
